Series [1] has as its system Control (peptide of Table 12).

For rhMMP13, the Specific Activity in the series on Peptide 10 came out at 156 pmol/min/µg; with Peptide 5 (GPLGVRG) it was 362 pmol/min/µg; in series [1], 10 pmol/min/µg; in the series on Peptide 8 it was 344 pmol/min/µg.

For the origin of these results see US20240262879.
